# Species: Rattus norvegicus
# Assay: animal or person
# Conditions: read-out: INH
compound,measurement,value
CC(C)Cc1cc2c(cc1Cl)C=C(C(=O)O)C(C(F)(F)F)O2 (stereo unspecified),inhibition in vivo at 10 mg/kg,62%

# Reference: ChEMBL document CHEMBL1629461, “The novel benzopyran class of selective cyclooxygenase-2 inhibitors. Part 2: the second clinical candidate having a shorter and favorable human half-life” (Bioorg Med Chem Lett, 2010)
